ChEMBL document CHEMBL4196060, “Synthesis and biological evaluation of indole-based UC-112 analogs as potent and selective survivin inhibitors” (Eur J Med Chem, 2018)

Legend:
Format in all cases: functional
[1] = Resistance index, ratio of IC50 for human M14/MDR1 cells to IC50 for human M14 cells
[2] = Resistance index, ratio of IC50 for human SW620/AD300 cells to IC50 for human SW620 cells
[3] = Resistance index, ratio of IC50 for human KB-C2 cells to IC50 for IC50 for human KB-3-1 cells

Oc1c(CN2CCCC2)cc(Cn2ccc3ccc(Cl)cc32)c2cccnc12
Ratio IC50 [1]: 4.8 | Ratio IC50 [2]: 0.21 | Ratio IC50 [3]: 0.15

COc1ccc2ccn(Cc3cc(CN4CCCC4)c(O)c4ncccc34)c2c1
Ratio IC50 [1]: 3.1 | Ratio IC50 [2]: 0.32 | Ratio IC50 [3]: 0.34

Oc1c(CN2CCCC2)cc(Cn2ccc3cc(F)ccc32)c2cccnc12
Ratio IC50 [2]: 0.17 | Ratio IC50 [3]: 0.13
